The text below walks through data of paper PMC3403872, “Contrasting effects of linaclotide and lubiprostone on restitution of epithelial cell barrier properties and cellular homeostasis after exposure to cell stressors” (BMC Pharmacology, 2012).

Protein sequences, listed by entry. Tags and fused reporters are not part of them. Lines headed by an entry give the natural chain unless they say otherwise; changes in a name come on top.
UniProt Q02747: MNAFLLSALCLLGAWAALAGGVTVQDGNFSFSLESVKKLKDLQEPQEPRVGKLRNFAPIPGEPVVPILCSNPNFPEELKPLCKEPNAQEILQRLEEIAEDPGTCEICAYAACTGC

Where no end group is shown, it is not given here.

The assay deals with guanylate cyclase, GC-C (T84 cells).

The term EC50 denotes the concentration at which the effect is half-maximal. For “guanylin: well established GC-C activator, Sigma-Aldrich (PGTCEICAYAACTGC; ends and bridges not checked; cysteine pairing not given here; UniProt Q02747 101-115, looked up)”, the “Vmax for increase in [cGMP]i” value is 9.7 ± 1.3 pmol/10^5 T84 cells. Also, the EC50 (read-out: EC50 for increase in [cGMP]i) is 29.3 ± 18.4 nM.
